Experimental findings from ChEMBL document CHEMBL1134245, “Two novel and potent 3-[(o-methoxyphenyl)piperazinylethyl]-5-phenylthien” (Bioorg Med Chem Lett, 2001) are described below.

The chains behind the UniProt entries cited, without tags or fusion partners.
UniProt P35368, whole entry: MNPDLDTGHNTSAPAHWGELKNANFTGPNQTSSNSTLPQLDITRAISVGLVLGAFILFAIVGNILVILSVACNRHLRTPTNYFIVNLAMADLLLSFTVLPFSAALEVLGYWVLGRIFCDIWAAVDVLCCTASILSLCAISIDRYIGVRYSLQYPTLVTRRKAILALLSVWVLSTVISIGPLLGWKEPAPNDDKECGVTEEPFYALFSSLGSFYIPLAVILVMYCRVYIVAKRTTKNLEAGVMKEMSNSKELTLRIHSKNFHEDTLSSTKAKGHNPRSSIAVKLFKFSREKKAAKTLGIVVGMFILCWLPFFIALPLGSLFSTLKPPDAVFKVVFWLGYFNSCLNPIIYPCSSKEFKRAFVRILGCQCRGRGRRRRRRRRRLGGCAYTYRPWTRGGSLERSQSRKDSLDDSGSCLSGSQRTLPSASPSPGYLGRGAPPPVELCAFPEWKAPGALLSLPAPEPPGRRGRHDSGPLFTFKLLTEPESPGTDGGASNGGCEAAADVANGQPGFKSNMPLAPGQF

Molecules are shown by their SMILES.

The assay addresses Alpha-1B adrenergic receptor (Homo sapiens, UniProt P35368). Description: Binding affinity towards human Alpha-1B adrenergic receptor.

`COc1ccccc1N1CCN(CCn2c(=O)c3c(-c4ccccc4)csc3n(C)c2=O)CC1` returned a Ki of 0.00447 µM.

Molecule `CC(CN1CCN(c2cc(F)c(F)cc2F)CC1)N1C(=O)CC2(CCCC2)CC1=O` (single isomer, unassigned) gave a Ki of 0.165 µM.

The Ki is the dissociation constant of the complex between target and ligand, obtained from inhibition or displacement. Higher therefore signals a looser hold on the target.
